# According to patent US9725465B2, “Biaryl acetamide compounds and methods of use thereof” (Ambit Biosciences Corporation, priority 2013, dated 2017):
# Protein sequences, listed by entry. Tags and fused reporters are not part of them. Chains listed by the source or under a name are the forms on record and can include a tag or linker. Residues count along the entry.
# UniProt P36888, 27-993: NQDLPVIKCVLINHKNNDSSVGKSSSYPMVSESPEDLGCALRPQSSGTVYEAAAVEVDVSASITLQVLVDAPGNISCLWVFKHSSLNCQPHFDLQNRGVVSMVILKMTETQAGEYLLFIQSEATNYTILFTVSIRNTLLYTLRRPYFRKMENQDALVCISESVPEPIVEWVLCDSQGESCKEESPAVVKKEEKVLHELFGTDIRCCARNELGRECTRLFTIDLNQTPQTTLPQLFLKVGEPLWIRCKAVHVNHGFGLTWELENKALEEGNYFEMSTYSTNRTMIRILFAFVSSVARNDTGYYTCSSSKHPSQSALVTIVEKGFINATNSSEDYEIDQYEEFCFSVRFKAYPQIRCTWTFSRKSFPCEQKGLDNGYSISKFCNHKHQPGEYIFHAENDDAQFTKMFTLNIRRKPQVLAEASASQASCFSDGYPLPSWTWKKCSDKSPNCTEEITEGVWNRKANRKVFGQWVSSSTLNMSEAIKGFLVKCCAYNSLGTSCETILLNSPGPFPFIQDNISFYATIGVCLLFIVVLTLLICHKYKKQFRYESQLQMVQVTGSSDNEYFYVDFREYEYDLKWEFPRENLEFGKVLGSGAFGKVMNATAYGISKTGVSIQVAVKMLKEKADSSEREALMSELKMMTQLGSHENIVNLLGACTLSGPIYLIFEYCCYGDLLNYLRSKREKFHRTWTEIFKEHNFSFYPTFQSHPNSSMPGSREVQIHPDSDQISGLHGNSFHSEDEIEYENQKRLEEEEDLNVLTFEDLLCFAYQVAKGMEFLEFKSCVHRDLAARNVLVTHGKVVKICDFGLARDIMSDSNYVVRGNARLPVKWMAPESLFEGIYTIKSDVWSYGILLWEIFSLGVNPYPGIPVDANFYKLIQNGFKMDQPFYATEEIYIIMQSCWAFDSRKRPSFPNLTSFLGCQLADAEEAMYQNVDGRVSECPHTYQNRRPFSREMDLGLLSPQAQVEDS
# UniProt P36888, other isoform, or with tags, fused parts or gaps limits assumed, stated change not applied: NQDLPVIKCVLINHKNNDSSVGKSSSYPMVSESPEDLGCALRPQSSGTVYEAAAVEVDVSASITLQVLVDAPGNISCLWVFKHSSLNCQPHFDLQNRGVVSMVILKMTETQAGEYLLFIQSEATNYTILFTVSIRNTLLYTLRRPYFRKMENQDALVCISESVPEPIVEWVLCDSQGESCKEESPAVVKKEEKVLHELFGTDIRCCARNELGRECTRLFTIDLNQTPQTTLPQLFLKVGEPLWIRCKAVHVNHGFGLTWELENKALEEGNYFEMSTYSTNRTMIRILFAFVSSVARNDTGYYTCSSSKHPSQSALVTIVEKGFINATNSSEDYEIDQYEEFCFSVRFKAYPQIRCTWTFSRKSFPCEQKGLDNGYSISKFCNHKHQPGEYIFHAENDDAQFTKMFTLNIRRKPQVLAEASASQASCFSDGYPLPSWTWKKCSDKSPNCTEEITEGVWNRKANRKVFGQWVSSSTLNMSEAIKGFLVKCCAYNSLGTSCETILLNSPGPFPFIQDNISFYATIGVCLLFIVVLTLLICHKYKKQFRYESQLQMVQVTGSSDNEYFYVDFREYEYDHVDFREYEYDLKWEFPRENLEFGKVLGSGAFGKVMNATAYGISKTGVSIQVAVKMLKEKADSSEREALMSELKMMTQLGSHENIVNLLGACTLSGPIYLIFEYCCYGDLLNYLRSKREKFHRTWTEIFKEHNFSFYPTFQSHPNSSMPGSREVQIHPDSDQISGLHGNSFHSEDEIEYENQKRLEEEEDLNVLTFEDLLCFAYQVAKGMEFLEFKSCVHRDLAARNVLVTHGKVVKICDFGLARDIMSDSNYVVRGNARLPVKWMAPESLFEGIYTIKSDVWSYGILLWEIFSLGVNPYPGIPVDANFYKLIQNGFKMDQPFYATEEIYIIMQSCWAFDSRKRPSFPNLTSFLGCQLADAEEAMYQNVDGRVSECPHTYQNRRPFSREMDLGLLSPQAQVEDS
# pIC50, pKd: −log10 of the molar value.
# Columns and labels:
# FLT3 kinase = FLT3 kinase (Homo sapiens (Human), UniProt P36888); assay: Competition binding assay (Kd), FLT3
# FLT3-ITD = FLT3-ITD (Homo sapiens (Human), UniProt P36888, INS600HVDFREYEYD); assay: pFLT3 MSD assay, Ba/F3 FLT3-ITD; format: cell-based; conditions: read-out: BaF3-FLT3-ITD pFlt3 IC50
# Method: Exemplary assays are described in the Example section.
# The effects of the compounds of Formula I provided herein, on the tyrosine kinase activity of the FLT3 mutants were determined by pFLT3 MSD (Meso Scale Discovery) electrochemiluminescence assay. […] Cells were plated at 200,000 cells/well in 96-well round bottom plates in low serum, and 3-fold serial dilutions of test compounds were added for 2 hours at 37° C. Cells were washed with PBS, lysed with 30 uL/well of cell lysis buffer (Cell Signaling Technology), and 25 uL/well were applied to FLT3 MSD capture plates that were pre-coated with anti-FLT3 monoclonal antibody (R&D Systems Catalog #MAB8121). After an overnight incubation at 4° C. shaking at 450 rpm, plates were washed with MSD wash buffer, and captured FLT3 was detected with biotinylated-anti-phosphotyrosine antibody 4G10 (Millipore) and SulfoTAG-streptavidin (MSD) for 1 hour at room temperature, and read on an MSD SECTOR Imager 6000. Percent remaining phospho-FLT3 in compound-treated cells was normalized to DMSO-treated cells, and IC50s were determined using Igor Pro software. All compounds are assayed in duplicate cell and MSD plates.
compound,measurement,setting,value
"COc1cc2nc(-c3ccc(CC(=O)Nc4cc(C(C)(C)C(F)(F)F)on4)c(F)c3)cnc2cc1OCCN1CCOCC1 [Example 171, 2-[2-fluoro-4-[7-methoxy-6-(2-morpholino-ethoxy)quinoxalin-2-yl]phenyl]-N-[5-(2,2,2-trifluoro-1,1-dimethyl-ethyl)isoxazol-3-yl]acetamide]",pKd,FLT3 kinase,> 8.30
same,pIC50,FLT3-ITD,> 8.00
